The target of this test is PTHR1 receptor.

These results are taken from patent US20110294738A1, “PTHR1 RECEPTOR COMPOUNDS” (priority 2008, published 2011).

B1: Compound 63 (peptide)
peptide: RETNAGRSDTRQ
modifications: N-terminal palmitoyl (Pal-) and C-terminal amide, by the method of Compound 82
Take B1: the Inhibition of Maximal Response came out at 1.2%.
